Binding of CDR-mutated scFvs to a peptide of the spike HR2 region

From the AlphaSeq antibody data of Engelhart et al. 2022 (doi:10.1038/s41597-022-01779-4), copy in the FLAb collection.

Target peptide (SARS-CoV-2 spike, HR2 region): PDVDLGDISGINAS

Ab-14 is the parent antibody, in scFv form: VH, then a 15-residue (Gly4Ser)3 linker, then VL. The heavy chain is unchanged in all variants.
VH: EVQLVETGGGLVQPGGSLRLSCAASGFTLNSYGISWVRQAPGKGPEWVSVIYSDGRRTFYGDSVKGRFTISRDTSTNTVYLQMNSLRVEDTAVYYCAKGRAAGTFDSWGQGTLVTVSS
VL: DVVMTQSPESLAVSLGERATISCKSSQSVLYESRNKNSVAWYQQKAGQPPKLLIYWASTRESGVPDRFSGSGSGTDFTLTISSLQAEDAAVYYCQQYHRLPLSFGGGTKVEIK

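The parent was found by panning a naive human phage display library on the peptide. Library AAYL50 holds single substitutions and randomly drawn double and triple substitutions in the CDRs. The scFvs were displayed on barcoded MATa yeast, the peptide on MATalpha yeast. Pairs that bind mate more often; barcode pairs of the diploids are counted by sequencing. Read counts were normalised to the haploid input and turned into Kd by a linear fit to BCL2-family pairs of known affinity, for each replicate. Mating was done three times.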

Changes read parent residue, position, new residue, counted from the first residue of the VL shown.
Every variant below is changed at S25 of the VL (sequential numbering).
The read-out is the apparent dissociation constant on a log10 scale (nM): the lower, the stronger.
"nd" marks a missing value. The strain was present, yet no cells mated with the target were sequenced in that replicate, which points to weak or no binding.

The variant S25L+H98D+R99F gave 0.47, 0.66, 0.63 (controls 1 of 9). The variant K24M+S25A gave 1.03, 1.16, 1.15 (controls 1 of 9). With S25P+V29D+A40D the result was nd, nd, nd (controls 0 of 9). For S25M+S26Q+L30N, the assay gave -0.13, 0.27, -0.02 (controls 1 of 9). With S25C+S33L+R34P the result was 0.82, 0.93, 0.82 (controls 5 of 9). With S25L+T59H+P101T the result was 4.02, nd, nd (controls 2 of 9).

The variant S25N+V29R+Y97P gave 1.50, 1.56, 1.65 (controls 0 of 9). For K24M+S25R+V39I, the assay gave 2.62, 3.09, 2.05 (controls 0 of 9). The variant K24V+S25Y gave 1.85, 1.54, 0.94 (controls 0 of 9). The variant S25Y+Y31D+S38K showed 1.03, 1.18, 1.17 (controls 5 of 9). The variant S25P+Q95P+P101Q showed nd, nd, nd (controls 2 of 9). With S25M+L102I+S103A the result was 0.05, 0.45, 0.24 (controls 2 of 9).

With S25Q+S26R the result was 0.75, 0.93, 0.89 (controls 3 of 9). The variant S25Y gave 0.85, 0.97, 0.91 (controls 0 of 9). The variant S25E+L30T showed 0.21, 0.77, 0.46 (controls 0 of 9). For K24F+S25G+S38M, the assay gave nd, 1.80, nd (controls 0 of 9). The variant S25W+S28K+P101R showed 1.72, 1.99, 3.03 (controls 2 of 9). The variant S25K+S33T+N37H showed nd, nd, nd (controls 0 of 9).

For K24C+S25C+S33G, the assay gave 2.23, 1.85, 2.40 (controls 2 of 9). With S25G+S33Q+R60L the result was 2.47, 2.05, 1.80 (controls 1 of 9). The variant S25V+S38A+R60A showed 0.89, 0.97, 0.82 (controls 1 of 9). The variant S25A+N35Y+S62Y showed 0.71, 0.97, 0.91 (controls 2 of 9). The variant S25F+K36Q+L100H showed 1.74, 1.68, 2.93 (controls 0 of 9). The variant S25K+S33D+A40N gave nd, nd, nd (controls 2 of 9).

The variant S25R+R60T+H98N showed nd, nd, nd (controls 1 of 9). The variant S25I+N37I+S103V showed 0.63, 0.98, 0.85 (controls 0 of 9). With S25L+S38P+V39I the result was 0.36, 0.46, 0.37 (controls 1 of 9). For S25I+S26T+A40M, the assay gave nd, nd, nd (controls 0 of 9). For S25F+W56H+T59F, the assay gave -0.14, 0.16, -0.03 (controls 2 of 9). With S25H+N37V+Q95C the result was nd, 3.24, nd (controls 0 of 9).

With S25L+N35R+P101C the result was 0.33, 0.46, 0.54 (controls 0 of 9). The variant S25C+T59Y+S103H gave 0.76, 1.03, 0.83 (controls 1 of 9). With S25R+S26V+P101H the result was nd, nd, nd (controls 1 of 9). The variant S25W+T59W showed 1.53, 1.60, 1.63 (controls 2 of 9). The variant S25I+V29R+Y97T gave 3.02, 2.44, 3.35 (controls 1 of 9). The variant S25C+E61H gave 5.65, nd, 4.19 (controls 0 of 9).

With S25K+S26A+S38N the result was 0.09, 0.43, 0.17 (controls 0 of 9). With S25W+V29M+W56S the result was 0.16, 0.44, 0.19 (controls 2 of 9). For S25N+Q27P+N35V, the assay gave 2.83, 2.39, 2.39 (controls 0 of 9). The variant S25K+S58R+E61M showed 1.20, 0.79, 0.75 (controls 0 of 9). For S25D+S26L+V39D, the assay gave nd, nd, nd (controls 1 of 9).

Top 4 of the variants detected in all replicates, tightest first:

S25F+W56H+T59F: -0.14, 0.16, -0.03 (controls 2 of 9).
S25M+S26Q+L30N: -0.13, 0.27, -0.02 (controls 1 of 9).
S25K+S26A+S38N: 0.09, 0.43, 0.17 (controls 0 of 9).
S25M+L102I+S103A: 0.05, 0.45, 0.24 (controls 2 of 9).

In this assay the parent's reference entry averaged 0.65; its copy inside this library read 1.68.
Empty control strains, which show no peptide, gave a signal in 18% of pairings with library AAYL50; the median was 4.19 and 95% of these signals were weaker than 2.99. No background was subtracted. For each scFv, signals with the empty controls are counted beside the result.